Molecules are shown by their SMILES.

Chains of the proteins cited; added tags and fusions are not shown.
UniProt P02699, whole entry: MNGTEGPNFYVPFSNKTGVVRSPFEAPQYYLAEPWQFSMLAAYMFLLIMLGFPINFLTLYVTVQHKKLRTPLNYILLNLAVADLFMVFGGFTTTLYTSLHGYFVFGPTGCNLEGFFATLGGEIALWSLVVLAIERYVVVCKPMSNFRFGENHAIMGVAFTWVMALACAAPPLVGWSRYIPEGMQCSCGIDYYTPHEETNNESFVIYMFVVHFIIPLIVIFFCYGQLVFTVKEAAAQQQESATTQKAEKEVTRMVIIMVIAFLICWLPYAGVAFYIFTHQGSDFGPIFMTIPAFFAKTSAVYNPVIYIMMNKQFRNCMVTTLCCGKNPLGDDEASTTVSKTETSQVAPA

Test [1] deals with T1, rhodopsin (Bos taurus, UniProt P02699). The test is described as follows: Competition ELISA: effect of small molecules on binding of MBP-8 to activated rhodopsin. The note with it: for enhancement of MBP-8 binding to EDTA-washed rhodopsin (in words): MBP-8 binding curve with added compound; for EC50: read-out: Binding of MBP-8 EC50, effect of small molecule on the binding of MBP-8 to MII. The text has this:
Competition ELISA assays were employed to screen a small molecule library (a 10,000 compound library representative of ChemDiv's Diverse Collection of drug-like molecules) for compounds that bind activated rhodopsin and increase/decrease the binding of MBP-8 high affinity peptide fusion protein. MBP 8 was selected based on its mid-range affinity. […] These types of screens may be used with libraries of any size, therefore it is possible to increase the size of the compound library by 10 fold or greater and continue screening for small molecule hits in a similar manner.
Two representative 96-well plates in which light-activated-rhodopsin-bound MBP-8 high-affinity peptide fusion proteins were assayed for competitive binding by 80 different compounds. Experiments were done in duplicate, and the results of the two separate plates averaged.
Dose response curves of MII (FIG. 24) indicate that both PL—0302 R3.C4 (σ), and heterotrimeric Gt (ν) stabilize the active form of rhodopsin. EDTA-washed rhodopsin (5 μM) was incubated in a 50 mM HEPES buffer, pH 8.2, with 100 mM NaCl, 1 mM MgCl2, and 1 mM DTT at 5.3° C., and “extra” MII was measured. For compounds that enhanced MBP-8 binding over 25% using the color coded readout, dose studies were performed to generate EC50 curves. Table XXII below provides the calculated EC50 for metarhodopsin II stabilization of each compound.
Small molecules also were tested for their ability to enhance the binding of MBP-8. PELM6 (the MBP control) and MBP-8 were plated on 96 well plates that contained EDTA-washed rhodopsin. A small molecule compound library was added, and the amount of pELM6 or MBP-8 that remained bound was measured. Standard methods were used.

Test [2] concerns the target T1, rhodopsin. Kind of test: "extra MII" assay: stabilization of metarhodopsin II. The text has this:
Rhodopsin can be measured spectrophotometrically in many of its conformational states. The high affinity, biologically active rhodopsin state can be easily differentiated from its precursor, MI, by the “extra” MII assay. See Example 35. This assay relies on the observation that under conditions of high pH and low temperature, MII is stabilized in the presence of Gt and can be spectrophotometrically measured. The ability of the C-terminal peptide to stabilize Meta II in the same manner as the heterotrimeric Gt, provides the tools to investigate the structural basis of the interaction of G proteins with the agonist binding sites of activated receptors.
For the “extra MII” assay, EDTA-washed rhodopsin (Example 5; 5 μM) is incubated in a 50 mM HEPES buffer, pH 8.2, with 100 mM NaCl, 1 mM MgCl2, and 1 mM DTT at 5.3° C., in the absence or presence of varying concentrations of Gt340-350 analogs or Gt. […] A flash of light bleaching 10% of the rhodopsin is presented and after a 1 min incubation, a second spectrum is measured and the difference in spectrum calculated. “Extra” MII is calculated as the difference between the absorbance at 390 and 440. Dose response curves of MII stabilization by αt340350 (λ), mutant α340-350K341L(ν), and heterotrimeric Gt (v) were analyzed by non-linear regression using the program GraphPad PRISM and are shown in FIG. 23. […]

The subject of a further test is isolated rods. Kind of test: Light response (membrane current) of isolated rods of dark-adapted salamander retina. The settings on record: 5 μM compound; depending on intensity of light flash. How it is done:
To test the effects of the small molecules in cells, light response experiments were carried out on isolated rods from the dark-adapted retina of a salamander. Single rods were isolated by shredding a small piece of retina. Photoreceptors were mechanically isolated from the dark-adapted retinas and placed in a gravity-fed superfusion chamber on the stage of an inverted microscope. Membrane currents were recorded with a suction electrode as described by Baylor et al., (Baylor et al., J. Physiol. (Lond.). 288:589-611, 1979; Baylor et al. J. Physiol. (Lond.). 288:589-611, 1979) in Ringer solution containing 120 mM NaCl, 2.0 mM KCl, 2 mM NaHCO3, 1.6 mM MgCl2, 1.0 mM CaCl2, 10 mM glucose, and 3 mM HEPES, pH 7.6, as described by Rieke and Baylor, Biophys. J. 71:2553-2572, 1996. Membrane current collected by the suction electrode was amplified, low-pass filtered at 20 Hz (3 dB point; 8-pole Bessel low-pass), digitized at 100 Hz and stored on a computer for subsequent analysis. Light responses were elicited by 10-msecond flashes of 50-500 nm light. […]
Light stimuli were delivered from a dual beam optical bench. […] Salamander L, S, and ultraviolet-sensitive cones have peak sensitivities at 600 nm, 430 nm, and 360 nm (Makino and Dodd, J. Gen. Physiol. 108:27-34, 1996) and are readily identified by the relative amplitudes of their responses to 620 nm, 440 nm, and 380 nm lights. […]

Broadly, the EC50 is the concentration needed to bring the measured effect to its halfway point. As for `Cc1ccc(S(=O)(=O)Nc2c(-c3ccccc3)c3cc(Cl)ccc3[nH]c2=O)cc1`, at rhodopsin [1], the “enhancement of MBP-8 binding to EDTA-washed rhodopsin (in words)” value (“enhancement of MBP-8 binding” for short) is recorded as “ability to enhance MBP-8 binding” and the EC50 was found to be 10.1 µM.
For `CCN1C(=O)C2C(c3ccccc3O)NC(Cc3c[nH]c4ccccc34)(C(=O)O)C2C1=O` (stereo not shown) the same measures were “ability to enhance MBP-8 binding” and 5.12 µM.
With `CC(=NNc1ccccc1C(=O)O)c1ccc(F)c(F)c1`, the “stabilization of MII (in words)” value at rhodopsin [2] is “stabilize the active form of rhodopsin”. Besides, at rhodopsin [1], the “enhancement of MBP-8 binding” value is reported as “ability to enhance MBP-8 binding” and the concentration giving a half-maximal response (EC50) came to 11.9 µM. The “increase of peak light response (change in current)” value with isolated rods is reported as 20%-50%.
As for `Cc1cc(O)c(C(=O)c2ccccc2)cc1Br`, at rhodopsin [1], the “enhancement of MBP-8 binding” value was “ability to enhance MBP-8 binding” and the half-maximal effective concentration (EC50) turned out to be 0.96 µM.

For the origin of these results see patent publication US7294472B2, “Method for identifying modulators of G protein coupled receptor signaling” (Caden Biosciences, priority 2001, dated 2007).
